Key:
[1] = molecular target: T1, Serine/threonine-protein kinase Chk1 (Homo sapiens, UniProt O14757)
T1 sequence (O14757 whole entry): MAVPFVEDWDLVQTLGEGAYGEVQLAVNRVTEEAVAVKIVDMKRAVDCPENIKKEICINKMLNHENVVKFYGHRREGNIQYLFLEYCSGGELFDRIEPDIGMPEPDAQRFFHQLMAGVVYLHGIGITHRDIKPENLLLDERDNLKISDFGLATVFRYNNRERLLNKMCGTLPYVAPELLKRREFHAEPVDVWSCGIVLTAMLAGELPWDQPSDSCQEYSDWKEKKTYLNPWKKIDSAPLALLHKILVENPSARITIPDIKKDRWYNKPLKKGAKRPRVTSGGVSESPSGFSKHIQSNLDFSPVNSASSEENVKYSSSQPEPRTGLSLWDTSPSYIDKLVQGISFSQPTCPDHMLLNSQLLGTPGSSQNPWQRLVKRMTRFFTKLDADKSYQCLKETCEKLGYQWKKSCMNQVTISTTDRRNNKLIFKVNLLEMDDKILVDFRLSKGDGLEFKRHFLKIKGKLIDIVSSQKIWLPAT

[2] = molecular target: T1, Serine/threonine-protein kinase Chk1; experiment: Inhibition of human CHK1
[3] = molecular target: T1, Serine/threonine-protein kinase Chk1; experiment: Inhibition of CHK1 in human U2OS cells assessed as phosphorylation of H2AX after 2 hrs by FITC/propidium iodide staining-based immunofluorescence assay in presence of hydroxyurea; format: cell-based

SMILES: COc1ccc2c(c1)C(=O)N(c1nc(C(=O)Nc3cnccc3N3CCNCC3)cs1)C2
- IC50 [1]: 1 nM
- IC50 [2]: 3.7 nM
- EC50 [3]: 30 nM
